In publication PMC3839849:

Target: CaV1.2 IQ domain (human)
Experiment: ITC

Row | Substance | Kd | dH
1 | N-lobeCaMEF12, apo-CaM N-lobe mimic (domain or fragment) | > 5000 nM | 
2 | C-lobeCaMEF34, apo-CaM C-lobe mimic (domain or fragment) | 2200 nM | -3.79 kcal/mol
